Laboratory results: article PMC6356585 (Viruses, 2018)

Experiments:
C6/36 cells = type: cell-based, Ae. albopictus; settings: 10 µM compound, 96 h, CellTiter-Glo; ± SEM, three independent trials
Vero cells = assay: Cell viability (CellTiter-Glo) of Vero cells; type: cell-based; settings: 10 µM compound, 40 h, ± SEM, three independent trials

Substance: Penitrem A
- C6/36 Viability (C6/36 cells): 43 ± 8.1% of untreated control
- Vero Viability (Vero cells): 78.3 ± 6.4% of untreated control
